Nrf2 ARE act – Nrf2 pathway activation. AREc32 ARE-luciferase reporter (MCF7-derived line), luminescence, 24 h. Potency, µM (highest dose often 46.1 µM), most hits filed as activators. 410,000 compounds, 0.31% hits. AID 624171; note: nearly all actives have a fitted effect of over 65% in size
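ARE activation measured as luciferase luminescence (Steady-Glo, 30 min RT) in AREc32_Fluc cells after 24 hr compound exposure at 37 deg C, 5% CO2; cells seeded overnight at 1000/well in OPTI-MEM, 5% FBS.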
TCR act – activators of T cell receptors | 330,000 tested, under 10 active | Potency, µM (highest dose often 9.22 µM), most hits filed as activators | primary human leukocytes, anti-CD3, IL-2 HTRF, 48 h
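Primary human leukocytes were stimulated with a-CD3 beads plus compounds for 48 hr without co-stimulation; secreted IL-2 was quantified by HTRF using a-IL-2-K (europium cryptate) and a-IL-2-d2, excited at 320nm with acceptor emission read at 665nm.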
Nrf2 block – blocks Nrf2 signaling; 360,000 compounds, 2.1% hits; Potency, µM (top dose mostly 46 µM), hits mostly inhibitors; A549 ARE-Fluc reporter, luciferase luminescence, 18-24 h; AID 504444; note: nearly all actives have a fitted effect of over 60% in size
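Quantitative HTS in A549 cells stably bearing an antioxidant response element-firefly luciferase construct. Inhibition of Nrf2-driven transcription was scored by luminescence after 18-24 h of compound exposure at 37 °C.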
miR-21 reporter – raises the signal of a miR-21 reporter | AID 2288 | 340,000 tested, under 10 active | Potency, µM (series often up to 38.3 µM) | HeLa miR-21 FLuc reporter, luciferase, 48 h; active = well fitted rising curve with a large enough effect; inconclusive = small, poorly fitted or top-dose-only effect; inactive = no such curve, though single readings can be large or run the other way;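 further: miR-21 action dims this reporter so a rising signal means less miR-21 action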
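Luminescence from a firefly luciferase reporter carrying a miR-21 binding site downstream, stably expressed under a CMV promoter in HeLa cells that make miR-21 endogenously, reports miRNA modulation after 48 h compound exposure up to approximately 40uM final.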
ClpP mod – qHTS Assay for Activators of ClpP | ATP-dependent Clp protease proteolytic subunit (Bacillus subtilis (strain 168)), P80244 | 340,000 compounds, 1.9% hits | purified B. subtilis ClpP, FRET peptide cleavage, 20 min | Potency, µM (top dose mostly 57.5 µM) | AID 651965, 2013; active = well fitted falling curve with a large enough effect; inconclusive = small, poorly fitted or top-dose-only effect; inactive = no such curve, though single readings can be large or run the other way; note: the source files actives as falling curves though it sought activators and does not explain the sign; nearly all actives have a fitted effect of over 65% in size
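Buffer: 100 mM Tris/HCl pH8, 100 mM KCl, 0.05% low protease BSA, 2.5% glycerol, 0.01% Tween-20. ClpP 10 microg/mL final; 20 min RT; delta FRET normalized to ADEP and DMSO controls.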
A549 tox – A549 cytotoxicity, counter-screen for Nrf2 inhibitors; A549 ARE-Fluc cells, CellTiter-Fluor viability, 18-24 h; Potency, µM (highest dose often 46 µM), hits mostly inhibitors; 390,000 compounds, 0.16% hits; AID 504648
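Cytotoxicity counterscreen: CellTiter-Fluor fluorescence was measured in A549 ARE_Fluc cells after 18-24 h of compound exposure in a concentration series. The subsequent BugLite luminescent read reports ARE-luciferase activity.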
Of the large screens only hits and unclear results are named; the others gave an inactive call. Rows were chosen to be rich in hits. Some 3.7% of all compounds tested hit in one or more screens of this group. Unless noted, calls come from the whole dose curve; as a rule, active = well fitted curve in the direction sought with a large enough effect; inconclusive = small, poorly fitted or top-dose-only effect, or another doubt; inactive = no such curve, though single readings can be large; an effect the other way counts as inactive or inconclusive.

CCC1CCCCN1CCCNC(=O)c1ccc2c(c1)N(Cc1ccccc1F)C(=O)c1ccccc1S2(=O)=O (centres undefined)	Nrf2 block inconclusive, miR-21 reporter inconclusive, A549 tox inconclusive (no result: TCR act)
Cc1ccc(F)cc1C(=O)N1CCCC(C)(C(=O)NS(=O)(=O)C2CC2)C1 (centres undefined)	none (no result: TCR act, Nrf2 block, miR-21 reporter, A549 tox)
COc1ccc(OC)c(CCNC(=O)CN2C(=O)COc3ccc(S(=O)(=O)N4CCC(C)CC4)cc32)c1	none (no result: TCR act)
Cc1ccc(Nc2c(-c3ccccc3O)nc3cc(C)ccn23)cc1	ClpP mod 28.2µM (no result: TCR act)
CC(C)(C)c1csc(NC(=O)c2ccncc2)n1	Nrf2 block 16.4µM (no result: ClpP mod)
S=C(NCC1CCCO1)N1CCN(c2cccc(Cl)c2)CC1 (centres undefined)	Nrf2 block 20.6µM
Fc1ccc(N2CCN(C(=S)NCC3CCCO3)CC2)cc1 (centres undefined)	none (no result: ClpP mod)
COCCNC(=S)N1CCN(c2nc(-c3ccccc3)cs2)CC1	none
S=C(NCCCN1CCOCC1)N1CCN(c2nc(-c3ccccc3)cs2)CC1	none (no result: ClpP mod)
S=C(NCCCN1CCOCC1)N1CCN(c2nc(-c3ccc(Cl)cc3)cs2)CC1	Nrf2 block 13µM, A549 tox inconclusive
S=C(NCC1CCCO1)N1CCN(c2nc(-c3ccc(Cl)cc3)cs2)CC1 (centres undefined)	Nrf2 block 16.4µM, A549 tox inconclusive (no result: ClpP mod)
CN(CC(=O)N/N=C/c1ccc(F)cc1)S(=O)(=O)c1ccccc1	none (no result: TCR act, Nrf2 block, miR-21 reporter, A549 tox)
COc1ccc(CNC(=O)C2CCN(S(=O)(=O)c3cccc4nonc34)CC2)cc1OC	none (no result: TCR act, Nrf2 block)
COc1cccc(CNC(=O)[C@H](C)NC(=O)N2CC(=O)Nc3ccccc32)c1	none (no result: TCR act, Nrf2 block, miR-21 reporter, A549 tox)
Cc1cccc(C)c1NC(=O)CNC(=O)c1ccc(COc2ccccc2)cc1	none (no result: TCR act, miR-21 reporter)
O=S(=O)(Nc1cccc2cccnc12)c1ccc2ccccc2c1	Nrf2 block 5.17µM (no result: Nrf2 ARE act, TCR act, miR-21 reporter, ClpP mod)
O=S(=O)(Nc1cccc2cccnc12)c1ccc(Br)cc1	Nrf2 block 8.2µM, A549 tox inconclusive (no result: Nrf2 ARE act, TCR act, miR-21 reporter, ClpP mod)
COc1ccc(S(=O)(=O)Nc2cc(OC)cc3cccnc23)cc1	Nrf2 block inconclusive (no result: Nrf2 ARE act, TCR act, miR-21 reporter, ClpP mod)
O=S(=O)(Nc1cccc2cccnc12)c1cccs1	Nrf2 block 18.4µM, A549 tox inconclusive (no result: Nrf2 ARE act, TCR act, miR-21 reporter, ClpP mod)
COc1ccc(S(=O)(=O)Nc2cccc3cccnc23)c([N+](=O)[O-])c1	Nrf2 block 7.31µM, A549 tox inconclusive (no result: Nrf2 ARE act, TCR act, miR-21 reporter, ClpP mod)
Cc1coc2cc3oc(=O)c(CCC(=O)NCC(=O)O)c(C)c3cc12	none
Cc1cc(O)c(C(c2cccc(Cl)c2)N2CCN(c3ccccc3)CC2)c(=O)n1Cc1ccco1 (centres undefined)	none (no result: TCR act, Nrf2 block)
COc1ccc(C2Nc3ccccc3C(=O)N2CCc2ccccc2)cc1COc1ccc(NC(C)=O)cc1 (centres undefined)	none (no result: Nrf2 ARE act, TCR act, miR-21 reporter, ClpP mod)
O=C(CSc1nccc(-c2cccs2)n1)Nc1cccc(Cl)c1Cl	Nrf2 ARE act 2.24µM
O=C(CSc1nccc(-c2cccs2)n1)Nc1ccc(Cl)cc1	Nrf2 ARE act inconclusive
Clc1cccc(Cl)c1CO/N=C/c1c(-c2ccccc2)nc2n1CCS2	Nrf2 block 18.4µM, ClpP mod 25.1µM
Cc1ccc(-c2nc(C#N)c(NCc3ccco3)o2)cc1	ClpP mod 20µM (no result: Nrf2 block)
N#Cc1nc(-c2ccc(F)cc2)oc1NCc1ccco1	Nrf2 ARE act inconclusive
COc1ccc(-c2nc(C#N)c(NCc3ccco3)o2)cc1	Nrf2 block inconclusive
Cc1ccc2cc(C#N)c(NCc3ccco3)nc2c1	Nrf2 ARE act inconclusive, ClpP mod 25.1µM
N#Cc1nc(-c2ccco2)oc1NCc1ccco1	Nrf2 block inconclusive, ClpP mod 3.16µM
N#Cc1nc(-c2ccco2)oc1NCCCN1CCOCC1	ClpP mod 3.55µM
CCOc1ccc(CNC(=O)C2CCN(C(=O)N3CC(CC)Oc4ccccc43)CC2)cc1 (centres undefined)	none (no result: TCR act)
CC(C)C(C(=O)NCc1ccccc1)N1CCN(c2ccccc2F)CC1 (centres undefined)	none (no result: Nrf2 ARE act, TCR act, Nrf2 block, miR-21 reporter, A549 tox)
Cc1ccc2c(c1)N(C)/C(=C/c1cccc[n+]1C)S2	Nrf2 block 6.51µM, A549 tox inconclusive (no result: ClpP mod)
Cc1ccc(NS(=O)(=O)c2cc3c(cc2N(C)C)CCC(=O)N3)cc1C	none (no result: Nrf2 ARE act, TCR act, miR-21 reporter, ClpP mod)
COc1ccc(Br)cc1CN(C)C(=O)CNC(=O)c1ccc2ccccc2c1	Nrf2 block 18.4µM, A549 tox inconclusive (no result: ClpP mod)
O=C(O)CCCCCn1c(SCC(=O)c2ccc(O)c(O)c2)nc2ccsc2c1=O	ClpP mod 7.94µM
CCCCn1c(SCC(=O)c2ccc(O)c(O)c2)nc2ccsc2c1=O	none
CCCOC(=O)c1c(NC(=O)C2CCCO2)sc(C(=O)OC)c1C (centres undefined)	none
CCOC(=O)c1c(NC(=O)C2CCCO2)sc(C(N)=O)c1C (centres undefined)	ClpP mod 28.2µM
CN(C)S(=O)(=O)c1ccc(Cl)c(NC(=O)CSc2nc3c(cc2C#N)C(=O)CCC3)c1	Nrf2 block 14.6µM
Cn1cnc([N+](=O)[O-])c1S(=O)(=O)c1ccc(Cl)cc1	Nrf2 block 18.4µM, miR-21 reporter inconclusive, A549 tox inconclusive (no result: ClpP mod)
Oc1cccc(-c2nc3c4c(ncn3n2)-c2ccccc2CC42CCCC2)c1	Nrf2 block 23.1µM, miR-21 reporter inconclusive, A549 tox inconclusive (no result: TCR act)
COc1ccc(OCc2nc3c4c(ncn3n2)-c2ccccc2CC42CCCC2)cc1	ClpP mod 28.2µM
CCOc1ccc(-c2csc(/C(C#N)=C\c3ccc(O)c([N+](=O)[O-])c3)n2)cc1	Nrf2 block inconclusive, A549 tox 16.4µM
COc1c(C(=O)Nc2nnc(C3CC3)s2)csc1Cl	Nrf2 ARE act 8.91µM, Nrf2 block inconclusive
O=C(Cc1ccccc1)N/N=C/c1ccc(-c2ccc([N+](=O)[O-])cc2)o1	none
Cc1ccc([N+](=O)[O-])cc1-c1ccc(/C=N/NC(=O)CN2CCOCC2)o1	Nrf2 ARE act 12.6µM
O=C(CCCCCn1c(=O)[nH]c2ccccc2c1=O)NCCc1ccccc1	ClpP mod 31.6µM (no result: TCR act, Nrf2 block)
CCOc1cc2[nH]c(=S)n(CCN3CCCCC3CC)c(=O)c2cc1OCC (centres undefined)	A549 tox inconclusive
O=C(CCCCCn1c(=O)[nH]c2ccccc2c1=O)NCc1ccccc1	none (no result: TCR act, Nrf2 block)
CCC1CCCCN1CCCn1c(=S)[nH]c2ccccc2c1=O (centres undefined)	ClpP mod 20µM
O=c1c2ccccc2[nH]c(=S)n1CCc1ccccc1	ClpP mod 7.08µM
Cc1cc(C(=O)COc2ccccc2C(N)=O)c(C)n1C	Nrf2 block inconclusive, ClpP mod 28.2µM

Compound activity as filed in PubChem BioAssay.
